The values below are quoted from earlier work in patent publication US20100012891A1, “Tooth Whitening Compositions and Methods” (priority 2008, published 2010).

By pKa is commonly meant the pH at which an ionisable group is half protonated.

The conditions of the data set: chlorite ion/chlorous acid equilibrium.

With chlorite [chlorite ion], the pKa is recorded as 1.8.
